Results: patent publication US12234211B2, “Cycloolefin substituted heteroaromatic compounds and their use” (HUTCHISON MEDIPHARMA LIMITED, priority 2017, dated 2025)

By UniProt entry, the sequences of proteins in these tests, tags left out. Residues count along the entry.
UniProt P48735, 40-452 R140Q limits assumed: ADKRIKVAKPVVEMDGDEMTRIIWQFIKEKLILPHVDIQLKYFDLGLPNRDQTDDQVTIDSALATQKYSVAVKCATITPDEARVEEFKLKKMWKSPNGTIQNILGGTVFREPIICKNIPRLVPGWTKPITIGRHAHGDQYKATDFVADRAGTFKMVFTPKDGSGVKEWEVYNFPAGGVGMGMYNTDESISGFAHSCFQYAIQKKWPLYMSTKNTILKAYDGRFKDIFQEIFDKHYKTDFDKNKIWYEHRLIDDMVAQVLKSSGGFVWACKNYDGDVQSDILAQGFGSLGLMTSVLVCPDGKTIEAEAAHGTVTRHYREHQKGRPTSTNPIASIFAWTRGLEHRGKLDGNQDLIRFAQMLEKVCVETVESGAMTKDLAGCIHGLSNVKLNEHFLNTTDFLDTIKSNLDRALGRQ
UniProt O75874, whole entry R132H: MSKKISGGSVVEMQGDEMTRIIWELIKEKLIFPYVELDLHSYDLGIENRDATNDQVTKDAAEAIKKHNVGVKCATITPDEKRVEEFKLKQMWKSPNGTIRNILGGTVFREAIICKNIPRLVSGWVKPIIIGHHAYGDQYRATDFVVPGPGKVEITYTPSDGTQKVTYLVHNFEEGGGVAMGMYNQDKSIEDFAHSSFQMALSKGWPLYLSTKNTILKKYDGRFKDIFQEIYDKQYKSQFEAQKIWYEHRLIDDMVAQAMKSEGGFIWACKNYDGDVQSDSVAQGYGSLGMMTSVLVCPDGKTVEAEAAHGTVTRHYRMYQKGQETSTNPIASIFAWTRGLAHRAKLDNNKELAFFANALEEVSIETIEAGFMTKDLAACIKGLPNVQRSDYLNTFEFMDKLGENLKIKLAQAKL

How the values were obtained:
IDH2-R140Q = IDH2-R140Q (Homo sapiens, UniProt P48735, R140Q); test: Fluorescent determination of IDH2-R140Q cell activity (2-HG in U87MGR140Q cells); settings: read-out: IC50 (2-HG inhibition), 72 hours incubation
IDH1-R132H = IDH1-R132H (Homo sapiens, UniProt O75874, R132H); test: Fluorescent determination of IDH1-R132H cell activity (2-HG in U87MGR132H cells); assay type: cell-based; settings: 2-HG inhibition in U87MGR132H cells transfected with IDH1-R132H mutant plasmid
[1] = Metabolic stability test in liver microsomes (mouse); assay type: in vitro ADME; settings: percentage of remaining compound after incubation for 30 minutes vs 0 minute; 1 μM compound; 0.5 mg/mL liver microsomes; 37° C.
[2] = Metabolic stability test in liver microsomes (rat); assay type: in vitro ADME; settings: percentage of remaining compound after incubation for 30 minutes vs 0 minute; 1 μM compound; 0.5 mg/mL liver microsomes; 37° C.
[3] = Determination of solubility in sodium phosphate buffers; settings: for Solubility pH 2.1: pH 2.1 sodium phosphate buffer; for Solubility pH 7.4: pH 7.4 sodium phosphate buffer

SMILES | IC50 (IDH2-R140Q) [nM] | IC50 (IDH1-R132H) [nM] | Mouse liver microsome stability [1] [%] | Rat liver microsome stability [2] [%] | Solubility pH 2.1 [3] [mg/mL] | Solubility pH 7.4 [3] [mg/mL]
C[C@@H](Nc1nc(NCC(F)(F)F)nc(C2=C(F)C(O)C(F)(F)CC2)n1)C(F)(F)F (stereo partly shown) | 78 | 715 | – | – | – | –
CCCNc1nc(N[C@H](C)C(F)(F)F)nc(C2=C(F)C(O)C(F)(F)CC2)n1 (mixture of isomers) [Compound 210] | 56 | 1380 | – | – | – | –
C[C@@H](Nc1nc(NC2CC2)nc(C2=C(F)C(O)C(F)(F)CC2)n1)C(F)(F)F (mixture of isomers) [Compound 238] | 50 | 2620 | – | – | – | –
C[C@H](Nc1nc(NC2CC(F)(F)C2)nc(C2=C(F)C(O)C(F)(F)CC2)n1)C(F)(F)F (mixture of isomers) [Compound 239] | 25 | 262 | 90.9 | 100.0 | – | –
CC(C)(C)ONc1nc(Nc2ccc3sncc3c2)nc(C2=C(F)C(O)CCC2)n1 (racemic) [Compound 34] | 65 | > 10000 | – | – | – | –
CC(C)Nc1nc(N[C@H](C)C(F)(F)F)nc(C2=C(F)C(O)CCC2)n1 (single isomer, unassigned) [100] | 2900 | – | – | – | – | –
CC(C)Nc1nc(N[C@H](C)C(F)(F)F)nc(C2=C(F)C(O)CCC2)n1 (single isomer, unassigned) [101] | 80 | 1140 | 84.6 | 88.0 | – | –
C[C@@H](Nc1nc(N[C@H](C)C(F)(F)F)nc(C2=C(F)C(O)CCC2)n1)C(F)(F)F (single isomer, unassigned) [102] | 51 | 232 | 86.2 | 92.7 | 0.729 | <0.005
C[C@@H](Nc1nc(N[C@H](C)C(F)(F)F)nc(C2=C(F)C(O)CCC2)n1)C(F)(F)F (single isomer, unassigned) [103] | 1000 | 2500 | 78.5 | 89.7 | – | –
OC1CCCC(c2nc(NC3CC(F)(F)C3)nc(NC3CC(F)(F)C3)n2)=C1F (single isomer, unassigned) [104] | 2080 | – | – | – | – | –
OC1CCCC(c2nc(NC3CC(F)(F)C3)nc(NC3CC(F)(F)C3)n2)=C1F (single isomer, unassigned) [105] | 40 | 351 | 67.3 | 84.0 | – | –
C[C@@H](Nc1nc(N[C@H](C)C(F)(F)F)nc(C2=C(F)C(O)CCCC2)n1)C(F)(F)F (single isomer, unassigned) [106] | 106 | 272 | – | – | – | –
C[C@@H](Nc1nc(N[C@H](C)C(F)(F)F)nc(C2=C(F)C(O)CCCC2)n1)C(F)(F)F (single isomer, unassigned) [107] | 554 | 1750 | – | – | – | –
[2H]C1(O)CCCC(c2nc(NC3CC(F)(F)C3)nc(NC3CC(F)(F)C3)n2)=C1F (single isomer, unassigned) [108] | 2230 | – | – | – | – | –
[2H]C1(O)CCCC(c2nc(NC3CC(F)(F)C3)nc(NC3CC(F)(F)C3)n2)=C1F (single isomer, unassigned) [109] | 57 | 279 | 58.8 | 85.4 | – | –
[2H]C1(O)CCCC(c2nc(N[C@H](C)C(F)(F)F)nc(N[C@H](C)C(F)(F)F)n2)=C1F (single isomer, unassigned) [110] | 70 | 160 | – | – | – | –
[2H]C1(O)CCCC(c2nc(N[C@H](C)C(F)(F)F)nc(N[C@H](C)C(F)(F)F)n2)=C1F (single isomer, unassigned) [111] | 2260 | – | – | – | – | –
[2H]C1([2H])CCC(c2nc(N[C@H](C)C(F)(F)F)nc(N[C@H](C)C(F)(F)F)n2)=C(F)C1([2H])O (single isomer, unassigned) [112] | 98 | – | – | – | – | –
[2H]C1([2H])CCC(c2nc(N[C@H](C)C(F)(F)F)nc(N[C@H](C)C(F)(F)F)n2)=C(F)C1([2H])O (single isomer, unassigned) [113] | 2060 | – | – | – | – | –
[2H]C1([2H])CCC(c2nc(NC3CC(F)(F)C3)nc(N[C@@H](C)C(F)(F)F)n2)=C(F)C1([2H])O (single isomer, unassigned) [114] | 1720 | – | – | – | – | –
[2H]C1([2H])CCC(c2nc(NC3CC(F)(F)C3)nc(N[C@@H](C)C(F)(F)F)n2)=C(F)C1([2H])O (single isomer, unassigned) [115] | 59 | – | – | – | – | –
[2H]C1([2H])CCC(c2nc(NC3CC(F)(F)C3)nc(NC3CC(F)(F)C3)n2)=C(F)C1([2H])O (single isomer, unassigned) [116] | 2620 | – | – | – | – | –
[2H]C1([2H])CCC(c2nc(NC3CC(F)(F)C3)nc(NC3CC(F)(F)C3)n2)=C(F)C1([2H])O (single isomer, unassigned) [117] | 95 | – | – | – | – | –

SMILES | IC50 (IDH2-R140Q) [nM] | IC50 (IDH1-R132H) [nM] | Mouse liver microsome stability [1] [%] | Rat liver microsome stability [2] [%] | Solubility pH 2.1 [3] [mg/mL] | Solubility pH 7.4 [3] [mg/mL]
CC(C)Nc1nc(N[C@@H](C)C(F)(F)F)nc(C2=C(F)C(O)CCC2)n1 (single isomer, unassigned) [118] | 106 | 2140 | – | – | – | –
CC(C)Nc1nc(N[C@@H](C)C(F)(F)F)nc(C2=C(F)C(O)CCC2)n1 (single isomer, unassigned) [119] | 3390 | > 10000 | – | – | – | –
C[C@@H](Nc1nc(NC2CC(F)(F)C2)nc(C2=C(F)C(O)CCC2)n1)C(F)(F)F (single isomer, unassigned) [120] | 2400 | – | – | – | – | –
C[C@@H](Nc1nc(NC2CC(F)(F)C2)nc(C2=C(F)C(O)CCC2)n1)C(F)(F)F (single isomer, unassigned) [121] | 68 | 186 | – | – | – | –
CC(C)Nc1nc(N[C@H](C)C(F)(F)F)nc(C2=CC(O)CCC2)n1 (single isomer, unassigned) [147] | – | – | 48.1 | 65.0 | – | –
C[C@@H](Nc1nc(N[C@H](C)C(F)(F)F)nc(C2=CC(O)CCC2)n1)C(F)(F)F (single isomer, unassigned) [148] | 1560 | – | – | – | – | –
C[C@@H](Nc1nc(N[C@H](C)C(F)(F)F)nc(C2=CC(O)CCC2)n1)C(F)(F)F (single isomer, unassigned) [149] | 177 | 693 | 59.7 | 66.8 | – | –
OC1C=C(c2nc(NC3CC(F)(F)C3)nc(NC3CC(F)(F)C3)n2)CCC1 (single isomer, unassigned) [150] | 541 | – | – | – | – | –
OC1C=C(c2nc(NC3CC(F)(F)C3)nc(NC3CC(F)(F)C3)n2)CCC1 (single isomer, unassigned) [151] | 39 | 256 | – | – | – | –
OC1C(F)=C(c2nc(NC3CC(F)(F)C3)nc(NC3CC(F)(F)C3)n2)CCC1(F)F (single isomer, unassigned) [236] | 45 | 252 | 83.9 | 91.3 | – | –
OC1C(F)=C(c2nc(NC3CC(F)(F)C3)nc(NC3CC(F)(F)C3)n2)CCC1(F)F (single isomer, unassigned) [237] | 1490 | – | – | – | – | –
[2H]C1(O)C(F)=C(c2nc(N[C@H](C)C(F)(F)F)nc(N[C@H](C)C(F)(F)F)n2)CCC1(F)F (single isomer, unassigned) [249] | 72 | 134 | 100.0 | 98.0 | 0.036 | 0.011
[2H]C1(O)C(F)=C(c2nc(N[C@H](C)C(F)(F)F)nc(N[C@H](C)C(F)(F)F)n2)CCC1(F)F (single isomer, unassigned) [250] | 2470 | 2480 | – | – | – | –
CC(C)Nc1nc(NC2CC(F)(F)C2)nc(C2=C(F)C(O)C(F)(F)CC2)n1 (single isomer, unassigned) [272] | 51 | 2090 | – | – | – | –
CC(C)Nc1nc(NC2CC(F)(F)C2)nc(C2=C(F)C(O)C(F)(F)CC2)n1 (single isomer, unassigned) [273] | 1230 | > 10000 | – | – | – | –
CC(C)(C)ONc1nc(Nc2ccnc(C(F)(F)F)c2)nc(C2=C(F)C(O)C(F)(F)CC2)n1 (single isomer, unassigned) [285] | 34 | 3590 | – | – | – | –
CC(C)(C)ONc1nc(Nc2ccnc(C(F)(F)F)c2)nc(C2=C(F)C(O)C(F)(F)CC2)n1 (single isomer, unassigned) [286] | 165 | > 10000 | – | – | – | –
[2H]C1(O)C(F)=C(c2nc(NOC(C)(C)C)nc(Nc3ccnc(C(F)(F)F)c3)n2)CCC1(F)F (single isomer, unassigned) [287] | 95 | > 10000 | – | – | – | –
[2H]C1(O)C(F)=C(c2nc(NOC(C)(C)C)nc(Nc3ccnc(C(F)(F)F)c3)n2)CCC1(F)F (single isomer, unassigned) [288] | 35 | 2700 | – | – | – | –
C[C@@H](Nc1nc(N[C@H](C)C(F)(F)F)nc(C2=CC(O)C(F)(F)CC2)n1)C(F)(F)F (single isomer, unassigned) [291] | 201 | 179 | 98.9 | 100.0 | – | –
C[C@@H](Nc1nc(N[C@H](C)C(F)(F)F)nc(C2=CC(O)C(F)(F)CC2)n1)C(F)(F)F (single isomer, unassigned) [292] | 3460 | 3640 | – | – | – | –
C[C@@H](Nc1nc(NC2CC(F)(F)C2)nc(C2=C(F)C(O)C(F)(F)CC2)n1)C(F)(F)F (stereo partly drawn) [Compound 259, 3-(4-((3,3-Difluorocyclobutyl)amino)-6-(((R)-1,1,1-trifluoropropan-2-yl)amino)-1,3,5-triazin-2-yl)-2,6,6-trifluorocyclohex-2-en-1-ol] | 1390 | 3510 | – | – | – | –
